Patent US20250136553A1, “ACYLSULFONAMIDE KAT6A INHIBITORS” (Olema Pharmaceuticals, Inc., priority 2023, published 2025)

Amino acid sequences for entries named in this document (tags omitted). Residues count along the entry.
UniProt Q92794, 507-778: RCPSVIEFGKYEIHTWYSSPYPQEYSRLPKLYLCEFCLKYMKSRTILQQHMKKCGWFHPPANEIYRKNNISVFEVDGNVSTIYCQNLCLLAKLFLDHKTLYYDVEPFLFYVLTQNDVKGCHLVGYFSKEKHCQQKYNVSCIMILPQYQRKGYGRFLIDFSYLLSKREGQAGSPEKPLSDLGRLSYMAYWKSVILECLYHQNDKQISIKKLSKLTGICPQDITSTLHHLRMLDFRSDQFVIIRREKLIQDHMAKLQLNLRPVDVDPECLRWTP

Target: human-KAT6A (MYST domain 507-778 aa) (Homo sapiens (Human), UniProt Q92794)
Assay: KAT6A biochemical assay (TR-FRET)
Conditions: histone H4 peptide 200 nM, acetyl-CoA 600 nM
From the text: TR-FRET based methods were used for assaying compounds of the present invention for KAT6A enzyme inhibitory activity. TR-FRET is a homogeneous proximity assay where Europium-labelled anti-acetyl lysine antibody binds to the acetylated substrate labelled with biotin, which in turn binds to streptavidin-labelled APC fluorescence acceptor. Europium can transfer energy to APC in the complex and the interaction of two dye-labelled binding partners is detected by the energy transfer between a donor and an acceptor dye and the subsequent light emission by the acceptor dye. KAT6A transfer an acetyl group from acetyl CoA to lysine amino acids of histones/target proteins. […] The plate is further incubated at 25° C. on shaker at 300 rpm and is read in TR-FRET mode (Ex:340 nm; Em: 615 nm and 665 nm) on a plate reader to achieve ˜5-7-fold activity. The percent inhibition was calculated from the ratio of the fluorescence (FL) intensities [(F665/F615)×10000) using the formula […]. IC50 values of the compounds were determined by fitting the dose-response data to sigmoidal curve fitting equation using Graph pad prism software V9.

COc1cccc(OC)c1S(=O)(=O)NC(=O)c1ccc(Cn2cccn2)c(OC)n1 [Compound 203, 5-((1H-pyrazol-1-yl)methyl)-N-((2,6-dimethoxyphenyl)sulfonyl)-6-methoxypicolinamide]
IC50: 9 nM
